Test: SAXS liquid crystalline phase formation for mixes of GMO and another ingredient immersed in PBS buffer (Example 1)
Format: physicochemical
Procedure: The samples were then mixed via a roller mixer at ˜10 RPM at 40° C. for at least 3 days. One week prior to SAXS experiment, 100 mg samples were loaded into a transparent polystyrene 96 well plate (Nunc™) and immersed in 200 μL of PBS buffer (pH 6.8). The samples were stored away from light at ambient temperature, to allow the samples to reach equilibrium. The SAXS/WAXS beamline at Australian Synchrotron, Melbourne, Australia was used to determine the liquid crystalline nanostructure in the samples. A custom-designed plate holder was used to mount the samples plate directly onto the SAXS/WAXS beamline. Scans were automated using a pre-loaded set of position variables based on the well positions within the plate, the exposure time was 5 sec. Data were obtained at ambient temperature (˜22° C.). […] The 2-D diffraction images were recorded on a Pilatus 1M detector and radially integrated using the in-house software “ScatterBrain”.

## Sacharin sodium
20% and above w/w ingredient in mix with GMO
  Liquid crystalline phase formed: mostly lamellar small amount
Concentration in GMO 1%
  Phase structure: V2(Pn3m)
Concentration in GMO 5%
  Phase structure: V2(Pn3m)
Concentration in GMO 10%
  Phase structure: V2(Pn3m) + others
Concentration in GMO 20%
  Phase structure: Lamellar
Up to 10% w/w ingredient in mix with GMO
  Liquid crystalline phase formed: cubic
